Target: PI3Kα (p110α/p85α) (Homo sapiens (Human), UniProt P42336)
Assay: PI3Kα enzymatic test by measuring the consumption of ATP
Type: biochemical
Procedure: Model 2: PI3Kα Enzymatic Test by Measuring the Consumption of ATP.
The test uses a lucifeurerin/luciferase system to measure the concentration of ATP and its consumption during the enzymatic reaction. The test is performed in 96-well format (Corning/Costar 96 black flat-bottomed half-wells plate, ref. 3694) in a total volume of 30 μl.
To 1 μl of inhibitor in 100% DMSO are added (final concentrations) 50 μM of the substrate PIP2 ((L-α-phosphatidyl-D-myoinositol 4,5-bisphosphate, Echelon 117P-4516-0500), 2 μM of ATP and 1.7 μg/ml of PI3Kα, (p110α/p85α, Invitrogen PV4788) in a buffer of Tris/HCl 50 mM pH 7.5, EGTA 1 mM, MgCl2 10 mM, Chaps 0.03%, 1 mM DTT). After 90 minutes, the reaction is quenched by adding 20 μl/well of KinaseGlo reagent (Promega V6713). After 10 minutes in the dark, the luminescence is read on the PHERAStar microplate reader (reading at 0.8 sec/well).
The IC50 values are determined by the preparation of successive threefold dilutions on at least a scale of 10 000.

Amino acid sequences for entries named in this document (tags omitted).
UniProt P42336, whole entry: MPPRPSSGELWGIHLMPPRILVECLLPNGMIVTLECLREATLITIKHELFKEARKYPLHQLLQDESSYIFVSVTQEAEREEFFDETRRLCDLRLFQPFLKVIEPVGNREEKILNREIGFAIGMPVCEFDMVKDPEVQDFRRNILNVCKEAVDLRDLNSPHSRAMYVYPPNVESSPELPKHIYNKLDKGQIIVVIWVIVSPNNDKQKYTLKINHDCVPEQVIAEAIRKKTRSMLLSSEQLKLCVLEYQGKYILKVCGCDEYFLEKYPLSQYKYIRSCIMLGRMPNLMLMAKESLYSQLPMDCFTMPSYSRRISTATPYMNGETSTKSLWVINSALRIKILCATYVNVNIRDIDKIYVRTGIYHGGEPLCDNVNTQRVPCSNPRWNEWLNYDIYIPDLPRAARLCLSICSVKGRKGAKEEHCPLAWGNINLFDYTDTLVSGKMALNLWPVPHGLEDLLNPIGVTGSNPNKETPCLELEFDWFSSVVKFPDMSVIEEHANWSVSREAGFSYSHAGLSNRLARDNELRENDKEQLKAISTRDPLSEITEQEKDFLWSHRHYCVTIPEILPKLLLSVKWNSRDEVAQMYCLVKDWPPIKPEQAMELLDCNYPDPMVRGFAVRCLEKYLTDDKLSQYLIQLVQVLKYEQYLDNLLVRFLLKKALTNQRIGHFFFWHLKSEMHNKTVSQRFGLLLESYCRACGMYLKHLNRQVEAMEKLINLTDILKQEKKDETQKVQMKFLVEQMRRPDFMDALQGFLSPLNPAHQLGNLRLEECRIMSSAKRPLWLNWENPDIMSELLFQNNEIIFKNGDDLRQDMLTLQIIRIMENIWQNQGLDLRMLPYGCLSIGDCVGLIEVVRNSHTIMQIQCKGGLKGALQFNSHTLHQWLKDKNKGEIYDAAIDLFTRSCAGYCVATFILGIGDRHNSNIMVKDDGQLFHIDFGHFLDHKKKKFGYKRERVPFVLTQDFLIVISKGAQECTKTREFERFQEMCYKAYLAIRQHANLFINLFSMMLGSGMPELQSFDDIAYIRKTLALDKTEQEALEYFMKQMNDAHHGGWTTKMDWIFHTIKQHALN

COCCN1CC(C)(C)Oc2nc(N3CC4CCC(C3)O4)nc(-c3ccc(NC(=O)Nc4cccc(OC(F)F)c4)c(F)c3)c2C1=O [Example 220, 1-(3-Difluoromethoxyphenyl)-3-{2-fluoro-4-[6-(2-methoxyethyl)-8,8-dimethyl-2-(8-oxa-3-azabicyclo[3.2.1]oct-3-yl)-5-oxo-5,6,7,8-tetrahydro-9-oxa-1,3,6-triazabenzocyclohepten-4-yl]phenyl}urea]
PI3Ka IC50: 1860 nM

From patent US9120812B2, “Pyrimidooxazocine derivatives as mTOR-inhibitors” (SANOFI, priority 2012, dated 2015)
